Assay: antinociceptive effect on the hot plate test after intrathecal injection, rats
Conditions: rat

CN1CC[C@]23c4c5ccc(O)c4O[C@H]2[C@@H](O)C=C[C@H]3[C@H]1C5.O=S(=O)(O)O
optimal CDEX concentration yielding the most significant augmentation of antinociceptive effect: 0.2%

From US5180716A, “Cyclodextrin complexes for neuraxial administration of drugs” (The Regents of the University of California, priority 1990, dated 1993)
